From patent US20070167377A1, “Inhibitors of glycinamide ribonucleotide transformylase” (priority 2002, published 2007) come the findings set out here.

Each structure is given as a SMILES string. pKi: −log10 of the molar value.

The target in the test is T1, recombinant human GAR Tfase (rhGAR Tfase) (Homo sapiens, UniProt P22102).
T1 construct: includes residues 808-1010 from the human trifunctional enzyme (purD-purM-purN); hexa-histidine (C); made in house; host or cells: E. coli BL21 (DE3) Gold, pet22b vector
T1 sequence (P22102 808-1010): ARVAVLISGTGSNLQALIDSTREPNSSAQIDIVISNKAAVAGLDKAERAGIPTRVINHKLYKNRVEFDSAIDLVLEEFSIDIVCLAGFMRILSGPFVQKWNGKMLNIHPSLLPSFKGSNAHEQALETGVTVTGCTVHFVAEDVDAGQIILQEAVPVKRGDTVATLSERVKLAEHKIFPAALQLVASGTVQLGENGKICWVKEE
Put plainly: Recombinant human GAR Tfase inhibition. In kind it is biochemical.

With `Nc1nc(N)c(CCCC(C(=O)C(F)(F)F)c2ccc(C(=O)N[C@@H](CCC(=O)O)C(=O)O)cc2)c(=O)[nH]1` (stereo partly drawn) [Compound 101, N-{4-[4-(2,4-Diamino-6-oxo-1,6-dihydropyrimidin-5-yl)-1-(2,2,2-trifluoroacetyl)butyl]benzoyl}-L-glutamic acid], the pKi (commonly −log10 of the Ki, conventionally taken in molar units) is 7.82.
